The values that follow come from US20100267637A1, “TREATMENT OF MELANOMA WITH ALPHA THYMOSIN PEPTIDES IN COMBINATION WITH A KINASE INHIBITOR” (SciClone Pharmaceuticals, Inc., priority 2007, published 2010).

This assay concerns murine B16 melanoma cells. Nature of the assay: Anti-tumor effect: tumor size / tumor volume in mice bearing subcutaneous B16 melanoma. The conditions noted are these: for Tumor volume: Day 12; for Tumor volumes on Day 15: Length × Width × Width/2. It counts as in vivo, C57BL/6 mice. The procedure: The toxic effects of the dosing regimens were also monitored. […] Meanwhile 9H10 was given in two groups via i.p. on Day 3, 6 and 9. […] Tumor volume and body weight were measured every three days, and tumor weights were measured on Day 16 at the end of the study.
As per aseptic tissue culture procedures, one vial of B16 melanoma cells was removed from the liquid nitrogen stock, and placed into a 37° C. water bath. Gentle swirling was conducted until the content of the vial was thawed. Using tissue culture/sterile procedures, the cells were immediately centrifuged with a TD5A-WS centrifuge at 1000 rpm, 20-25° C., 5 min. After centrifugation, the cells were suspended in 0.1 to 0.5 mL normal saline (NS) and subcutaneously injected into 10 mice (0.1 mL/mouse, about 1×10^6 cells). After 7-10 days, when the tumor diameter was approximately 1 cm, the animals were euthanized with CO2 overdose and the tumors excised. The procedure was repeated with 20 mice to generate a sufficient number of B16 melanoma cells with adequate transplantability.
On the day of tumor implantation, approximately 1×10^6 cells in 0.1 mL were subcutaneously injected on the right axillary area of each mouse. The day of tumor implantation was defined as Day 0.
On Day 3, the animals were randomly assigned into nine different weight-matched and tumor-size-matched groups. Dosing was started on Day 3 using the regimen according to Table 2.
From Day 1 to Day 15, mortality and moribundity were checked twice daily, the body weights were recorded once every 3 days, and tumors were measured using a caliper once every 3 days. At the end of the study (Day 16), the animals were euthanized by CO2 asphyxiation, and the tumors were excised and weighed.
Based on the tumor size, the tumor volume (TV) was calculated with the formula: [TV=(Length×Width×Width)/2]. And the percent inhibition (PI) of TV (PITV) was calculated according to the equation below:
PITV(%)=(TV vehicle−TVdrug treated)/TV vehicle×100
Inter-group comparison was performed in terms of tumor volume, tumor weight and body weight, using a student's t test. P values of less than 0.05 were considered to be statistically significant.

Structures are written as SMILES.

`CNC(=O)c1cc(Oc2ccc(NC(=O)Nc3ccc(Cl)c(C(F)(F)F)c3)cc2)ccn1` [Sorafenib]: the Tumor volume is, setting by setting: (animal F1) 0.0135 cm^3; (animal F3) 0.0135 cm^3; (animal F4) 0.0135 cm^3; (animal F5) 0.0135 cm^3; (animal M2) 0.0135 cm^3; (animal M5) 0.0135 cm^3. For the same molecule, the “Tumor volumes on Day 15” value is 0.1080 cm^3 (animal F1), 0.1080 cm^3 (animal F3) and 0.0135 cm^3 (animal M4).
